The numbers were not newly measured in US11254696B2, “Dianilinopyrimidine compound for inhibiting kinase activity” (Shenzhen Targetrx, Inc., priority 2017, dated 2022), which cites them from elsewhere.

The subject of one series is ALK+NSCLC. The following applies: cited from earlier work.
The test system of another series is ALK I1171N/T/S. The following applies: Crizotinib-resistant mutation; cited from earlier work.

As to `C[C@@H](Oc1cc(-c2cnn(C3CCNCC3)c2)cnc1N)c1c(Cl)ccc(F)c1Cl` [Crizotinib], the “ALK-positive patients with no objective response at the beginning of therapy” value in the series on ALK+NSCLC (ALK-positive patients) is listed as “About 40%”. Also, in the series with ALK+NSCLC (patients with ALK+NSCLC), the median progression-free survival is 8-11 months and the objective response rate is given as 60-74%.
Take `CCc1cc2c(cc1N1CCC(N3CCOCC3)CC1)C(C)(C)c1[nH]c3cc(C#N)ccc3c1C2=O` [Alectinib]: in the series on ALK I1171N/T/S, the “effect on I1171N/T/S” value is “no effect”.
